{"sequences": {"note": "Amino acid sequences for entries named in this document (tags omitted). Residues count along the entry.", "UniProt P37023, 22-503": "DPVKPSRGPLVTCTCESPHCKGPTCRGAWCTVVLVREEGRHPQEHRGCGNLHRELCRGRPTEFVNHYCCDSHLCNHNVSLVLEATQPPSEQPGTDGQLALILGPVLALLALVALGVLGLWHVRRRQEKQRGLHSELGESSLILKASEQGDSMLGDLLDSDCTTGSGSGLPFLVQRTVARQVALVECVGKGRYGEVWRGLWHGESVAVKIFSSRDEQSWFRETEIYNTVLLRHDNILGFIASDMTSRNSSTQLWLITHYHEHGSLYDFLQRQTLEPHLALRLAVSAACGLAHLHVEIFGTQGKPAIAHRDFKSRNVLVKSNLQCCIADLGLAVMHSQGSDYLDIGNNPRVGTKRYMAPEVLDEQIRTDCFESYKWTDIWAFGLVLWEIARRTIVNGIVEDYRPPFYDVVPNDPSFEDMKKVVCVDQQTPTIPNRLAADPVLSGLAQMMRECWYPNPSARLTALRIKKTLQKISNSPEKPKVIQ"}, "source": "paper PMC9924264", "about": "(Journal of Medicinal Chemistry, 2023)", "key": {"ACVRL1 (ALK1)": {"target": "ACVRL1 (ALK1) (Homo sapiens, UniProt P37023)", "test": "ThermoFisher SelectScreen LanthaScreen assay", "assay_type": "binding", "settings": "for selectivity over BMPR2: ALK1, text; for selectivity: ALK1 vs BMPR2"}, "ACVR1 (ALK2)": {"target": "T1, ACVR1 (ALK2) (Homo sapiens, UniProt Q04771)", "T1 sequence (Q04771 21-509)": "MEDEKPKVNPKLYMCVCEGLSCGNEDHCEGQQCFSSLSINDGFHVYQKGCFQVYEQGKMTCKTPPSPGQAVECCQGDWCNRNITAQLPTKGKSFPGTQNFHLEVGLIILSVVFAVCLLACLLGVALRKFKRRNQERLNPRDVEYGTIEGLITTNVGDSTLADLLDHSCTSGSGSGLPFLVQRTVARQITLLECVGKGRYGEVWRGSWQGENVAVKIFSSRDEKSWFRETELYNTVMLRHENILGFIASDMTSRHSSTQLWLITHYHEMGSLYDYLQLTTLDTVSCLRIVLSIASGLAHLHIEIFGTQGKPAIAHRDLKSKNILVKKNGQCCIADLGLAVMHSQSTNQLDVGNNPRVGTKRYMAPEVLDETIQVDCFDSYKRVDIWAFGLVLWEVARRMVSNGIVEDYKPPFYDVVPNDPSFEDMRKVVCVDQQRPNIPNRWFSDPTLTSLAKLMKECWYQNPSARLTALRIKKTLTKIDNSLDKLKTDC", "test": "ThermoFisher SelectScreen LanthaScreen assay", "assay_type": "binding"}, "BMPR2 kinase domain": {"target": "T2, BMPR2 kinase domain (Homo sapiens, UniProt Q13873)", "T2 sequence (Q13873 188-517)": "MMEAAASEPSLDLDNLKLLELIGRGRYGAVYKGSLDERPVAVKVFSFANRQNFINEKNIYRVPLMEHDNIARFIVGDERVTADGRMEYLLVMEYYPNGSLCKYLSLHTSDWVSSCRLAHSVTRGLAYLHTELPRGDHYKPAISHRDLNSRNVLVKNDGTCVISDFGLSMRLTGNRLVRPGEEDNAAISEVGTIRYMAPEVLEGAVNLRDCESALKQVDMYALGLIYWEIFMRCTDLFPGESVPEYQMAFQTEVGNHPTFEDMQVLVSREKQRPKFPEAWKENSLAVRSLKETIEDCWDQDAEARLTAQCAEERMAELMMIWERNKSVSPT", "test": "BMPR2 Kinase-Glo kinase inhibition assay", "assay_type": "biochemical", "settings": "compared to parent CDD-1431", "summary_of_the_method": "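Recombinant human BMPR2 kinase domain (aa188-517, C-terminal His-tag) expressed in E. coli and purified by affinity, anion-exchange and size-exclusion chromatography. Substrate-free ATPase end-point assay: 10 μM ATP, 0.02% Tween-20, kinase buffer, 30 min at 30 °C. Enzyme level optimized for linear initial velocity. Leftover ATP read by luciferase luminescence, with no-kinase controls. Kiapp from modified Morrison equation fit to normalized fractional activity, no inhibition mode assumed.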"}, "[1]": {"test": "Metabolic stability in mouse liver microsomes", "assay_type": "in vitro ADME", "settings": "compared with analogue (CDD-1115 for CDD-1281, CDD-1431 for CDD-1653)"}, "[2]": {"test": "Metabolic stability in human liver microsomes", "assay_type": "in vitro ADME", "settings": "compared with analogue (CDD-1115 for CDD-1281, CDD-1431 for CDD-1653)", "summary_of_the_method": "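Human liver microsomes (0.5 mg protein/mL) incubated at 37 °C with test compound (2.0 μM) and NADPH cofactor (1.0 mM). Samples taken at 0, 30 and 60 min, in duplicate. […] Half-life was compared with that of the paired structural analogue.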"}}}
{"smiles": "CNC(=O)CCc1ccc(C(=O)NCc2cccc(N3CCN(c4nc(Nc5cccc(S(N)(=O)=O)c5)ncc4OC)CC3)c2)cc1", "note": "[CDD-1431, N-(3-(4-(5-Methoxy-2-((3-sulfamoylphenyl)amino)pyrimidin-4-yl)piperazin-1-yl)benzyl)-4-(3-(methylamino)-3-oxopropyl)benzamide]", "values": [{"measurement": "selectivity over BMPR2", "setting": "ACVRL1 (ALK1)", "value": "> 625", "unit": "fold"}, {"measurement": "selectivity", "setting": "ACVRL1 (ALK1)", "value": ">625", "unit": "×"}, {"measurement": "selectivity over BMPR2", "setting": "ACVR1 (ALK2); ALK2, text", "value": "> 625", "unit": "fold"}, {"measurement": "selectivity", "setting": "ACVR1 (ALK2); ALK2 vs BMPR2", "value": ">625", "unit": "×"}]}
{"smiles": "COc1cnc(Nc2cccc(S(N)(=O)=O)c2)nc1N1CCN(c2ccccc2)C(=O)C1", "note": "[CDD-1653, 3-((5-Methoxy-4-(3-oxo-4-phenylpiperazin-1-yl)pyrimidin-2-yl)amino)benzenesulfonamide]", "values": [{"measurement": "fold improved BMPR2 potency", "setting": "BMPR2 kinase domain", "value": 2.9, "unit": "fold"}, {"measurement": "selectivity over BMPR2", "setting": "ACVRL1 (ALK1)", "value": "> 360", "unit": "fold"}, {"measurement": "selectivity", "setting": "ACVRL1 (ALK1)", "value": ">360", "unit": "×"}, {"measurement": "fold increase of half-life in MLM", "setting": "[1]", "value": 5.7, "unit": "fold"}, {"measurement": "fold increase of half-life in HLM", "setting": "[2]", "value": 13.8, "unit": "fold"}]}
